Publication PMC10223898, “Discovery of AI-2 Quorum Sensing Inhibitors Targeting the LsrK/HPr Protein–Protein Interaction Site by Molecular Dynamics Simulation, Virtual Screening, and Bioassay Evaluation” (Pharmaceuticals, 2023)

Assays:
LsrK = target: T1, LsrK (S. typhimurium, UniProt Q8ZKQ6 1-530); test: SPR; conditions: both partners purified
T1 construct: LsrK (autoinducer-2 kinase) of S. typhimurium; the LsrK encoding gene was amplified and cloned with BamHI and XhoI into pET-28a; cloning with BamHI/XhoI into pET-28a may also add vector-encoded N-terminal residues (surmise); The cited crystal structure PDB 5YA1 of LsrK/HPr served only for modelling; also called His-tagged LsrK; source: E. coli BL21(DE3), pET-28a, purified (Ni-NTA, dialysis); not …
T1 sequence (looked up): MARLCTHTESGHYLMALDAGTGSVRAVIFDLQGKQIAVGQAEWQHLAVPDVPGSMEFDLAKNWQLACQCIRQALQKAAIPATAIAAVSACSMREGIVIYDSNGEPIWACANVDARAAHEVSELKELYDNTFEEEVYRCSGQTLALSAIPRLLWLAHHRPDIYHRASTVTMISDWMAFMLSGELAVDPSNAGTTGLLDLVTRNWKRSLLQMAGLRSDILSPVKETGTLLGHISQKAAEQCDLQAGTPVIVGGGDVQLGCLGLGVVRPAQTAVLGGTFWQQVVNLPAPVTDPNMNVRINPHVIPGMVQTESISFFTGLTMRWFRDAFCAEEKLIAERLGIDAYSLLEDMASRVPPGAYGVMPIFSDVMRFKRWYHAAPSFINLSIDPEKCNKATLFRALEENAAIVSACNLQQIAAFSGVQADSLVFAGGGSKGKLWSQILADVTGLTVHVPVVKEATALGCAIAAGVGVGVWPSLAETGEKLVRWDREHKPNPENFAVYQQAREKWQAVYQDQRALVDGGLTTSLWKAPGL

[1] = target: T2, LsrK-N protein (HPr-binding domain of LsrK, residues 1-260) (S. typhimurium, UniProt Q8ZKQ6 1-260); test: SPR; conditions: both partners purified
T2 construct: cloning with BamHI/XhoI into pET-28a may also add vector-encoded N-terminal residues (surmise); also called N-terminal domain; source: E. coli BL21(DE3), pET-28a, purified (Ni-NTA, dialysis); not shown: His6, C-terminal, kept
T2 sequence (looked up): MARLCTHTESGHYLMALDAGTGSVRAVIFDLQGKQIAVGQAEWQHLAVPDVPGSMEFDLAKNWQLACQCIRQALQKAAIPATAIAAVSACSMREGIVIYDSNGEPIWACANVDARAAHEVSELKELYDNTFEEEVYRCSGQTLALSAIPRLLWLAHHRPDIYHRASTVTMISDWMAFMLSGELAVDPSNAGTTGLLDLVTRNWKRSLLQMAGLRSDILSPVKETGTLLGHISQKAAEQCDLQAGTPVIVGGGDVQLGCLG

B1: HPr (natural protein)
chain: not shown
notes: HPr (phosphocarrier protein of the PTS) of S. typhimurium; the HPr encoding gene was amplified and cloned with EcoRI and NotI into pGEX-4T-1; No cleavage of the GST tag is described; the protein was eluted with glutathione and concentrated, so GST was probably still attached in the SPR assay (surmise); source: E. coli BL21(DE3), pGEX-4T-1, purified (GST Gravity column, eluted with glutathione, …)
LsrK
  Kd: 70.5 nM
[1]
  Kd: 97.7 nM
